Measured values reported in US6913900B2, “Plasma prekallikrein activation and kallikrein production assay” (Nippon Zoki Pharmaceutical Co., Ltd., priority 2001, dated 2005).

System: prekallikrein activating factor (PK activation)
Experiment: Inhibition profile of PK activation (prekallikrein activation assay, kallikrein substrate S-2302, O.D. 405 nm)
Type: biochemical, human
Conditions: inhibitor concentration 2 mM
From the text: In embodiments of the invention the reaction time may be fixed or “set.” The reaction time can be “set” by stopping the production of kallikrein, for example, by adding a prekallikrein activation inhibitor to the system of the present invention after a desired reaction time. Also, by adding a coloring or fluorescent synthetic substrate to the reaction system from the start or beginning, the produced amount of kallikrein (coloring or fluorescent intensity) may be observed at different lapses of time. […] When the reaction is stopped, the produced kallikrein can be quantitatively determined using an enzymatic activity of kallikrein as a target, for example, by applying a substrate to kallikrein.
When the reaction is stopped, the produced plasma kallikrein can be determined using an enzymatic activity of the plasma kallikrein as a target by utilizing a substrate to the plasma kallikrein.
Assays were performed in HEPES buffered saline (HBS) (10 mM Hepes, 137 mM NaCl, 4 mM KCl, 11 mM D-glucose, and 0.5 mg/ml RIA grade bovine serum albumin, pH 7.4), with a kallikrein specific substrate (0.6 mM S-2302). […] The absorbance (O.D. at 405 nm or optical density at 405 nm) was monitored at room temperature on a Molecular Devices (Sunnyvale, Calif.) THERMOmax microplate reader. […]

## O=S(=O)(F)Cc1ccccc1 [PMSF]
  % inhibition of PK activation: 5%
